The record followed here is US5336483A (priority 1993, dated 1994).

Amino acid sequences for entries named in this document (tags omitted). A change or cut given only in a name is not applied to a line headed by its entry.
UniProt P41144: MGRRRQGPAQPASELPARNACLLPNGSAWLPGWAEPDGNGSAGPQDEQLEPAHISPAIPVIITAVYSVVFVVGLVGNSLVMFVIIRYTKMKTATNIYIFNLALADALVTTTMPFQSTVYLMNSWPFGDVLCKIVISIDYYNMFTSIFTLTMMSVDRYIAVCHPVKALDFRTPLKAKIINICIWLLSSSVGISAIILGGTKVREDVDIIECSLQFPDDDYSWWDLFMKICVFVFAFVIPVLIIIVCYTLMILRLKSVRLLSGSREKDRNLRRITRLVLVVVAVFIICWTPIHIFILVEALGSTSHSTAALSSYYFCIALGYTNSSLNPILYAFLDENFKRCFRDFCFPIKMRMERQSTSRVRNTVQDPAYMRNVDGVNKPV

This assay deals with κ1 receptor (Cavia porcellus, UniProt P41144). The settings on record: read-out: Kd of radioligand; [^3 H]U69,593.

As to `CN(C(=O)Cc1ccccc1)C1CCC2(CCCO2)CC1N1CCCC1` (stereo not shown), the Kd – broadly, a measure of binding affinity in units of concentration – was 1.6 nM.
